# According to patent US7084127B2, “C2,5′-disubstituted and N6, C2,5′-trisubstituted adenosine derivatives and their different uses” (Universiteit Leiden, priority 2001, dated 2006):
# Amino acid sequences for entries named in this document (tags omitted). A change or cut given only in a name is not applied to a line headed by its entry.
# UniProt P30543, whole entry: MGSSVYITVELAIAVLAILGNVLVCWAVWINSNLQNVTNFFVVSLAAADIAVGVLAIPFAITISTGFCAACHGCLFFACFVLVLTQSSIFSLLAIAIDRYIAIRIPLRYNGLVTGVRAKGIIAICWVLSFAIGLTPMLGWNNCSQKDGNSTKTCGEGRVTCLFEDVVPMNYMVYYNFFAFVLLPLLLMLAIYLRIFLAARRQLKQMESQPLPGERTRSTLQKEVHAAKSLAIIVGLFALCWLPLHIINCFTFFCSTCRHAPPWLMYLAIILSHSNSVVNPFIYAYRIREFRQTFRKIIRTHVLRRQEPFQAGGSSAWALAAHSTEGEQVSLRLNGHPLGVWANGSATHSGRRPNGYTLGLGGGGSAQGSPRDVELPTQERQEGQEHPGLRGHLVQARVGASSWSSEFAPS
# Molecular target: T1, A2A receptor in rat striatum (Rattus norvegicus, UniProt P30543)
# T1 construct: the A2A receptor in rat striatum; from tissue; host or cells: rat striatum
# Test: Radioligand binding, displacement of [3H]ZM241385 from rat striatal membranes;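 further: displacement assays run in the absence of GTP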
# Settings: [3H]ZM241385, rat striatal membranes
structure (smiles),measurement,value
"Nc1nc(I)nc2c1ncn2[C@@H]1O[C@H](CO)[C@@H](O)[C@H]1O [Compound 1, 2-Iodoadenosine]",Ki,4.2 ± 0.08 µM
